# Laboratory results as given in PubChem BioAssay AID2462 (Broad Institute, 2010).
# The entries are a selection whose mix differs from that of the whole data set. Calls of active or inactive are those of the source.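 How the source made its calls: active means over half of replicate activation scores above 10%, or exactly half above 10 with the replicate mean above 10; inconclusive means replicate mean below 10 yet half the replicates above 10; inactive means over half of replicates below 10.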
# Assay: caspase 3/7 activation in MEF A1-2A-BIM cells, primary screen, A1 inhibitor project, cell-based, luminescence, HTS (AID 2462)
# Conditions: Caspase-Glo 3/7 luminescence, 3 h, hits give high values, percent of clofoctol response, vehicle zero, concentration not given here
row,SMILES,caspase activation
1,CP(=O)(Nc1ccccc1)Oc1ccc(F)cc1 (stereo unspecified),inactive: -0.121%
2,CCOC(=O)NC(Sc1ccccc1)C(Cl)(Cl)Cl (stereo unspecified),inactive: 0.155%
3,Cc1ccc(NP(=O)(Oc2cccc(C)c2)Oc2cccc(C)c2)nc1,inactive: -0.168%
4,c1ccc(-c2nn[nH]n2)c(-c2nn[nH]n2)c1,inactive: 0.505%
5,CCNC(=S)/N=C(\N)N[N+](=O)[O-],inactive: 0.505%
6,O=C(NC1CCS(=O)(=O)C1)NP(=S)(Oc1ccccc1)Oc1ccccc1 (stereo unspecified),inactive: -1.39%
7,COc1ccc(OP(C)(=O)Nc2ccc(SC(F)(F)F)cc2)cc1 (stereo unspecified),inactive: 0.316%
8,CCOC(=O)c1ccc(NP(C)(=O)Oc2ccc(F)cc2)cc1 (stereo unspecified),inactive: -0.0254%
9,O=[N+]([O-])c1cc([N+](=O)[O-])c(NCC2CCS(=O)(=O)C2)c([N+](=O)[O-])c1 (stereo unspecified),inactive: -0.578%
10,O=[As](O)(c1ccccc1)c1ccc(O)cc1,inactive: 0.031%
11,O=[N+]([O-])c1ccc(O)c(/C=N/Nc2ccc([N+](=O)[O-])cc2[N+](=O)[O-])c1,inactive: -0.47%
12,O=[N+]([O-])c1ncn(CCn2cnc([N+](=O)[O-])n2)n1,inactive: 1.28%
13,CC(=O)NC(SC(=S)N(C)C)C(Cl)(Cl)Cl (stereo unspecified),inactive: 0.204%
14,O=[N+]([O-])c1ccc(OP2(=O)COCCO2)cc1 (stereo unspecified),inactive: 0.893%
15,O=C(OC1CN2CCC1CC2)c1cccc(Cl)c1 (stereo unspecified),inactive: -0.255%
16,C(Cc1nn[nH]n1)Cc1nn[nH]n1,inactive: 0.47%

row,SMILES,caspase activation
1,Nc1ccc([As](=O)(O)c2ccc([N+](=O)[O-])cc2)cc1,inactive: 0.083%
2,O=P(Nc1ccccn1)(c1ccc(Br)cc1)c1ccc(Br)cc1,inactive: -0.567%
3,CN(C)C1(CNC(=O)c2ccc(Cl)c(S(N)(=O)=O)c2)CCCCC1,inactive: 0.11%
4,COc1ccc(OP(C)(=O)Nc2cccc(Br)c2)cc1 (stereo unspecified),inactive: 0.756%
5,COc1ccc(NP(C)(=O)Oc2ccccc2OC)cc1 (stereo unspecified),inactive: -0.889%
6,C[C@H]1OP(=O)(Oc2ccccc2)[C@H](O)[C@H](O)[C@H]1N=[N+]=[N-] (stereo partly specified),inactive: 0.0664%
7,CN(C)CCOC(=O)C(O)(c1ccccc1)C1CCCCC1 (stereo unspecified),inactive: 0.362%
8,O=P(Nc1nc2ccccc2s1)(c1ccccc1)c1ccccc1,inactive: 0.321%
9,CP(=O)(Nc1ccc2c(c1)OCCO2)Oc1ccccc1 (stereo unspecified),inactive: 0.396%
10,Cc1ccccc1NP(C)(=O)Nc1ccccc1C,inactive: -0.163%
11,CC(C)C(=O)NC(Sc1ccccc1)C(Cl)(Cl)Cl (stereo unspecified),inactive: 0.435%
12,O=P(Nc1nccs1)(c1ccccc1)c1ccccc1,inactive: 0.113%
13,CP(=O)(Nc1ccc(SC(F)(F)F)cc1)Oc1ccc(F)cc1 (stereo unspecified),inactive: 0.942%
14,c1nnnn1CCn1cnnn1,inactive: 0.37%
15,CCOP(C)(=S)SCC(=O)NC(C)(CC)C(=O)O (stereo unspecified),inactive: -0.401%
